# Experimental data taken from patent US11951108B2, “Combination therapy for treating cancer” (Epizyme, Inc., priority 2016, dated 2024).
# Tested on: HCC1419
# Assay: In vitro combination study, breast cancer cell line HCC1419
# Details: ER/PR −/−, HER2 +, 7 day pre-treatment + 6 day co-treatment
structure (smiles),measurement,value
N#Cc1ccc(C(c2ccc(C#N)cc2)n2cncn2)cc1 [Letrozole],Synergy or antagonism of second agent with tazemetostat (IC50 shift of second agent),A (Antagonism)
